Results taken from patent US12415774B2, “Polyol-based esters of hydroxycarboxylic acids” (KetoLipix Therapeutics GmbH, priority 2019, dated 2025).

Tested on: pancreatin (Panzytrat 40,000)
Assay: Cleavage experiments with pancreatin
Conditions: aqueous, 50° C.
Experimental: Both media are from the company Biorelevant®, Ltd. in Great Britain. In addition, in some experiments porcine pancreas is added (Panzytrat® 40,000, Fa. Allergan).
The pancreatin is used in the form of the commercially available product Panzytrat® 40,000 from the Allergan company. The whole mixture is stirred on a hot plate at 50° C.; the course of the reaction is determined and monitored by continuously recording the acid number over time.

3-BHB-tetra-diglycerol ester was tested, and the “cleavage by pancreatin to the free 3-hydroxybutyric acid” value was “cleaved by pancreatin to the free 3-hydroxybutyric acid”.
